Experimental data as given in patent publication US9394263B2, “Substituted hetero-azepinones” (priority 2012, dated 2016).
Counter-ions that a name gives are not always drawn.

Chains of the proteins cited; added tags and fusions are not shown. A line that says so, or that is headed by a name, gives the form on record, which may keep a tag or linker.
UniProt P98170, other isoform, or with tags, fused parts or gaps, stated change not applied: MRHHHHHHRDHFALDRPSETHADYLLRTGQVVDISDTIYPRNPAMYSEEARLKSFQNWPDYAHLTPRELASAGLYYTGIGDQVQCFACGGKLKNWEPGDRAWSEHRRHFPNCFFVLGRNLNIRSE

Target: BIR2 domain of XIAP (Homo sapiens (Human), UniProt P98170, C202A/C213G)
Experiment: TR-FRET assay for BIR2: inhibition of binding of XIAP BIR2 domain to Peptide A (SMAC-derived peptide);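 further: percent inhibition measured across a concentration series of each compound, from which the IC50 was derived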
Protocol: TR-FRET Assay for BIR2 and BIR3
Percentage of inhibition at each concentration was determined to generate an IC50 value for each test compound.

In the case of CN[C@@H](C)C(=O)N[C@H]1CSc2c(NC(=O)CCCC(C)=O)cccc2N(Cc2cccc3ccccc23)C1=O [Example 24, 5-Oxo-hexanoic acid [(R)-3-((S)-2-methylamino-propionylamino)-5-naphthalen-1-ylmethyl-4-oxo-2,3,4,5-tetrahydro-benzo[b][1,4]thiazepin-9-yl]-amide hydrochloride], the IC50 is reported as 373 nM.
